# US7132271B2, “Methods for enhancing the production of viral vaccines in cell culture” (priority 1995, dated 2006)
# How the values were obtained:
# [1] = tested on: PKR; assay: PKR autophosphorylation assay with poly(I):poly(C)-cellulose on cell extracts; format: biochemical, human
# Excerpt: Residual PKR activity in PKR-deficient cells can be determined by any of a number of techniques that are well-known in the art. The activity of PKR can be determined directly by, for example, an autophosphorylation assay such as that described in Maran et al. (Science 265:789–792 1994) or Silverman et al. (Silverman, R. H., and Krause, D. (1986) in Interferons: A practical approach. Morris, A. G. and Clemens, M. J., eds. pp. 71–74 IRL Press, Oxford-Washington, D.C.). Typically, an autophosphorylation assay for PKR activity is carried out as follows. Extracts from cells to be examined for PKR activity which contain approximately 100 μg of protein are incubated with 20 μl of poly(I):poly(C)-cellulose beads for 60 min on ice. The kinase is immobilized and activated on the beads. After washings of the polynucleotide cellulose-bound kinase fractions, an autophosphorylation reaction is performed at 30° C. for 30 min in an assay solution. […] The samples are heated at 90° C. for 3 min in gel sample buffer containing sodium dodecyl sulfate (SDS) and the proteins are analyzed by 10% SD S-polyacrylamide gel electrophoresis. […]
# PKR kinase activity was measured in an autophosphorylation assay that uses poly(I):poly(C)-cellulose for binding and activation of PKR enzyme. […] Proteins were separated on a 10% SDS-polyacrylamide gel and analyzed by autoradiography.
# [2] = tested on: human PKR; assay: Western blot analysis of PKR protein in U937 transfectants; format: cell-based
# Protocol: To further confirm the inhibition of PKR expression in the pPKR-AS-transfected cell lines, Western blot analysis was performed using a monoclonal antibody specific for human PKR. Cell extracts (100 μg) were separated on a 10% SDS-polyacrylamide gel and electrotransferred onto nitrocellulose membrane. The membranes were incubated with anti-PKR monoclonal antibody (Meurs et al. Cell 1990) at 1:1000 in BLOTTO (5% nonfat dry milk, 0.05% Tween-20 in Tris-buffered saline). Final detection of PKR was facilitated by probing with a secondary horseradish peroxidase-conjugated goat anti-mouse antibody (Santa Cruz Biotech) and using a chemiluminesence method (Amersham ECL).
substance,measurement,setting,value
"IFN-α: recombinant human IFN-α2, Schering",PKR activity following treatment with IFN,"[1]; U937-neo cells, recombinant human IFN-α2 200 U/mL",increased
same,Restoration of PKR activity by IFN treatment,[1]; four cell lines transfected with pPKR-AS or p[Arg^296]PKR,did not restore PKR activity
same,PKR protein level following treatment with IFN,[2]; U937-AS1 and U937-AS3 cells,did not increase
same,PKR protein level following treatment with IFN,[2]; U937-neo cells,increased
